From ChEMBL document CHEMBL4270649, “Development of novel amide-derivatized 2,4-bispyridyl thiophenes as highly potent and selective Dyrk1A inhibitors. Part II: Identification of the cyclopropylamide moiety as a key modification” (Eur J Med Chem, 2018)

Species: Homo sapiens
Assay: Selectivity ratio of IC50 for full length recombinant human GST-tagged DYRK1B expressed in baculovirus expression system to IC50 for recombinant human N-terminal His6-tagged DYRK1A expressed in Escherichia coli BL21(DE3)

SMILES	Ratio IC50
O=C(Cc1ccc(F)cc1)Nc1cncc(-c2cc(-c3cccnc3)cs2)c1	27
O=C(Nc1cncc(-c2cc(-c3cccnc3)cs2)c1)C1CC1	24
